Data reported in BindingDB's records for 19147366.

The chains behind the UniProt entries cited, without tags or fusion partners.
UniProt P33535, whole entry, looked up: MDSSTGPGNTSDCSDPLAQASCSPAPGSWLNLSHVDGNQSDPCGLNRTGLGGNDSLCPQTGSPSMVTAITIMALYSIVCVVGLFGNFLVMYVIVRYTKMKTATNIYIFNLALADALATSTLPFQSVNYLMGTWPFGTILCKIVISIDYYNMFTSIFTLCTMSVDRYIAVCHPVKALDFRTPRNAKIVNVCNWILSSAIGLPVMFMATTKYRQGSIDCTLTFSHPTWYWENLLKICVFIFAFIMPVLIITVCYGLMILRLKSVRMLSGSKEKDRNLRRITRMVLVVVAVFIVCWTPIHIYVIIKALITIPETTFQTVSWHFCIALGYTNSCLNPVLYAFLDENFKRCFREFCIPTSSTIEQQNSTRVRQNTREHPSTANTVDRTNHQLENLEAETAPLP
UniProt P32300, whole entry, looked up: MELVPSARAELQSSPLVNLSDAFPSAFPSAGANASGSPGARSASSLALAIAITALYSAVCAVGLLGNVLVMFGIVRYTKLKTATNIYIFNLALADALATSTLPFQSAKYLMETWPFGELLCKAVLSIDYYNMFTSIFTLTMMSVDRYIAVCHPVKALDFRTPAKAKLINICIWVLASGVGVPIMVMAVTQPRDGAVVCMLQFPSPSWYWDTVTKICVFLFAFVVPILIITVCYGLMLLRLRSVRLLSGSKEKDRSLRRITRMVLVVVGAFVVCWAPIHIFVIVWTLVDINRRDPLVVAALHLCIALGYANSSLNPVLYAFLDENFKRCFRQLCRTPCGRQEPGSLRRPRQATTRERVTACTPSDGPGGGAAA

Assays:
Mu-type opioid receptor = Mu-type opioid receptor (Rattus norvegicus, UniProt P33535); test: Binding affinity to rat MOPR expressed in CHO cells
[1] = molecular target: Delta-type opioid receptor (Mus musculus, UniProt P32300); test: Binding affinity to mouse DOPR expressed in CHO cells

## CN(C(=O)Cc1ccc(Cl)c(Cl)c1)[C@@H]1CCCC[C@H]1N1CCCC1
Mu-type opioid receptor
  Ki: > 1000 nM
[1]
  Ki: > 1000 nM
